Literature values, collected in US10301355B2, “Method of using pharmaceutical compositions comprising selective peptide-based agonists of melanocortin 1 receptor” (University of Cincinnati, priority 2012, dated 2019).

Details: caused by activation of MC3R and MC4R; cited from earlier work

In the case of “melanotan II [MT-II, reference compound]”, the off-target effects is listed as “sexual arousal and spontaneous erections lasting for 1-5 hours, nausea, grade II somnolence, fatigue, stretching, yawning, and loss of appetite”.
